Measurements reported in article PMC12312913.

The chains behind the UniProt entries cited, without tags or fusion partners. Residues count along the entry.
UniProt P0A263, 22-378: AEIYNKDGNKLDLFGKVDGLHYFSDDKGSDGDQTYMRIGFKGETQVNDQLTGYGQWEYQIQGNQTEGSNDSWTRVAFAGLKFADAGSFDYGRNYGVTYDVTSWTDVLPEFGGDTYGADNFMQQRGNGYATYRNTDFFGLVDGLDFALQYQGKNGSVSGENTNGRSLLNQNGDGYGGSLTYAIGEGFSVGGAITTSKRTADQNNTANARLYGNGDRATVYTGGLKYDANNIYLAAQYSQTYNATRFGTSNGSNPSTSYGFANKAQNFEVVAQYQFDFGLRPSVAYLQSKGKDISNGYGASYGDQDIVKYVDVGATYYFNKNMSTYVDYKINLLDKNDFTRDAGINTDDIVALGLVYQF
UniProt P37409, 21-614: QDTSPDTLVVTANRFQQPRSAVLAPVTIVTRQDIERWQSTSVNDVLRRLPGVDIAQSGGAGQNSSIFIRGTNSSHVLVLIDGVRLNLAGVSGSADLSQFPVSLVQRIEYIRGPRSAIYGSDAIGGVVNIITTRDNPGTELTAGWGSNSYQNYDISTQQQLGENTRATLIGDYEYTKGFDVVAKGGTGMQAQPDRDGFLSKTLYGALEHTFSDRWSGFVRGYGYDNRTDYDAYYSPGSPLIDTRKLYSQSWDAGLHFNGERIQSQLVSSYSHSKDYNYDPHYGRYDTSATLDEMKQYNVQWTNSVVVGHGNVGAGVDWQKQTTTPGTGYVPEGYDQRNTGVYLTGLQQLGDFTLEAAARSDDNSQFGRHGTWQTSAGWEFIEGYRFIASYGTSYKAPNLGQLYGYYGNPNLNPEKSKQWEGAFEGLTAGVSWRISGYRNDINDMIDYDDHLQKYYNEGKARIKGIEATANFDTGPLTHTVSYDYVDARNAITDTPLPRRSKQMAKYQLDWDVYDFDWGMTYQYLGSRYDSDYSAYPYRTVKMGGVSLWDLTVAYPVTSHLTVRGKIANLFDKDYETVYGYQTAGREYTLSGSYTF

Key:
[1] = target: OmpC fused to TF and His tag (S. Typhimurium) (UniProt P0A263); assay: BLI; settings: natural protein
[2] = target: BtuB fused to TF and His tag (S. Typhimurium) (UniProt P37409); assay: BLI; settings: natural protein

Gifsy-1 central tail tip J protein with Flag tag
koff [1]: 9.99e-06 s⁻¹ | koff [2]: 5.69e-07 s⁻¹
